Reference: the kinase profiling compilation of Christmann-Franck et al. (2016)

By UniProt entry, the sequences of proteins in these tests, tags left out.
SGK1 (human), O00141, UniProt O00141, whole entry S422D, looked up: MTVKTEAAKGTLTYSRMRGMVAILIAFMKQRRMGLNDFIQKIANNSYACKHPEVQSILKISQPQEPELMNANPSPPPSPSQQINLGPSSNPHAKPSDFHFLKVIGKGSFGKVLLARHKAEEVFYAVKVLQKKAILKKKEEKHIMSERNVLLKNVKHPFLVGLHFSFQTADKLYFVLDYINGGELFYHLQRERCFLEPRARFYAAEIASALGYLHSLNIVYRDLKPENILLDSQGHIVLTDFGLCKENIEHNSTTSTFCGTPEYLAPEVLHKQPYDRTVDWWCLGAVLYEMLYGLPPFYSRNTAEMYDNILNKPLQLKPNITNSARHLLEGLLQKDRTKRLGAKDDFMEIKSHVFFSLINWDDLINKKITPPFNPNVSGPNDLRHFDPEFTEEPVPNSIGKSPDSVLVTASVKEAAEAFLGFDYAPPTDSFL

These molecules were tested on SGK1 (human), O00141 [S422D] (assay: radiometric filter-binding kinase assay, Kinase HotSpot). Details: compound 0.5 µM; ATP 10 µM.

residual activity | SMILES
86.7% | COc1cc(OC)c(/C=C2\C(=O)Nc3ccccc32)c(OC)c1
91.6% | CO[C@H]1[C@@H](OC)C[C@H](C)[C@@H](OC)C2=CC(=O)C=C(NC(=O)/C(C)=C\C=C/[C@H](OC)[C@@H](OC(N)=O)/C(C)=C\[C@@H]1C)C2=O
88.7% | O=C1c2ccccc2-[n+]2ccc3c([nH]c4ccccc43)c21

SMILES | residual activity
O=C1Nc2ccc3ncsc3c2/C1=C/c1c[nH]cn1 | 24.7%
